Columns and labels:
[1] = Biodistribution of yttrium-[90]-labeled 2B8-MX--DTPA in BALB/c mice; assay type: in vivo
Method: Using a similar approach, 2B8-MX--DTPA was also radiolabeled with yttrium-[90] and its biological distribution evaluated in BALB/c mice over a 72-hour time period. Following purification by HPLC size exclusion chromatography, four groups of five mice each were injected intravenously with approximately 1 μCi of clinically-formulated conjugate (specific activity:12.2 μCi/mg); groups were subsequently sacrificed at 1, 24, 48 and 72 hours and their organs and tissues analyzed as described above. Radioactivity associated with each tissue specimen was determined by measuring bremstrahlung energy with a gamma scintillation counter. Activity values were subsequently expressed as percent injected dose per gram tissue or percent injected dose per organ. While organs and other tissues were rinsed repeatedly to remove superficial blood, the organs were not perfused. Thus, organ activity values were not discounted for the activity contribution represented by internally associated blood.
The biodistribution of yttrium-[90]-labeled conjugate, having a specific activity of 12.2 mCi/mg antibody, was evaluated in BALB/c mice. Radioincorporations of >90% were obtained and the radiolabeled antibody was purified by HPLC. Tissue deposition of radioactivity was evaluated in the major organs, and the skin, muscle, bone, and urine and feces over 72 hours and expressed as percent injected dose/g tissue. […] Importantly, the radioactivity associated with the bone ranged from 4.4% of the injected dose per gram bone at 1 hour to 3.2% at 72 hours.

Ramos tumor cells = test: Mouse xenographic model with B cell lymphoblastic tumor (Ramos tumor cells); assay type: in vivo, nu/nu mice; settings: Y2B8 100 μCi; FIG. 11
[2] = test system: CD20 positive SB target cells; test: Antibody dependent cellular cytotoxicity effector assay, CD20 positive cells; assay type: cell-based; settings: human peripheral lymphocytes, effector:target 100:1, 4 hr, 37° C., FIG. 8

B1: Y2B8: Yttrium-[90]-labeled 2B8-MX--DTPA (conjugate, chains of the INN, looked up)
heavy: QAYLQQSGAELVRPGASVKMSCKASGYTFTSYNMHWVKQTPRQGLEWIGAIYPGNGDTSYNQKFKGKATLTVDKSSSTAYMQLSSLTSEDSAVYFCARVVYYSNSYWYFDVWGTGTTVTVSAPSVYPLAPVCGDTTGSSVTLGCLVKGYFPEPVTLTWNSGSLSSGVHTFPAVLQSDLYTLSSSVTVTSSTWPSQSITCNVAHPASSTKVDKKIEPRGPTIKPCPPCKCPAPNLLGGPSVFIFPPKIKDVLMISLSPIVTCVVVDVSEDDPDVQISWFVNNVEVHTAQTQTHREDYNSTLRVVSALPIQHQDWMSGKEFKCKVNNKDLPAPIERTISKPKGSVRAPQVYVLPPPEEEMTKKQVTLTCMVTDFMPEDIYVEWTNNGKTELNYKNTEPVLDSDGSYFMYSKLRVEKKNWVERNSYSCSVVHEGLHNHHTTKSFSR
light: QIVLSQSPAILSASPGEKVTMTCRASSSVSYMHWYQQKPGSSPKPWIYAPSNLASGVPARFSGSGSGTSYSLTISRVEAEDAATYYCQQWSFNPPTFGAGTKLELKRADAAPTVFIFPPSDEQLKSGTASVVCLLNNFYPREAKVQWKVDNALQSGNSQESVTEQDSKDSTYSLSSTLTLSKADYEKHKVYACEVTHQGLSSPVTKSFN
modifications: yttrium-90, MX-DTPA chelator (tiuxetan)
notes: Yttrium-[90]-labeled 2B8-MX--DTPA
In the case of B1, the “radioactivity associated with the bone” value ([1]; 1 hour) is reported as 4.4 % of the injected dose per gram bone, the “radioactivity associated with the blood” value ([1]; 1 hour, about 1 μCi i.v.) is reported as “approximately 39.2 % injected dose per gram” and the “radioactivity associated with the blood” value ([1]; 72 hours) is reported as “roughly 15.4 % injected dose per gram”. The “radioactivity associated with the bone” value ([1]; 72 hours) was 3.2 % of the injected dose per gram bone, the “release of free radiometal from the conjugate” value ([1]; during the 72 hour study) was “little free radiometal was released” and the “radioactivity associated with tail, heart, kidney, muscle and spleen” value ([1]; throughout the experiment (1-72 hours)) was ≤ 10.2%. For the same molecule, the “tumoricidal effect (tumor size, length x width)” value (Ramos tumor cells) was “tumoricidal effects”.

B2: 2B8: murine anti-CD20 monoclonal antibody; hybridoma ATCC HB 11388 (antibody, chains of the INN, looked up)
heavy: B1 heavy
light: B1 light
For B2, the “antibody dependent cell mediated lysis” value [2] was “statistically insignificant effect”.
